Results taken from US20210275686A1, “BINDER/ACTIVE AGENT CONJUGATES DIRECTED AGAINST CXCR5, HAVING ENZYMATICALLY CLEAVABLE LINKERS AND IMPROVED ACTIVITY PROFILE” (BAYER AKTIENGESELLSCHAFT, priority 2018, published 2021).

Tested on: Caco-2 cells
Assay: Cell permeability flux assay using Caco-2 cells
Format: in vitro ADME
Conditions: Caco-2, 2 h

SMILES: CC(C)(C)[C@H](c1cc(-c2cc(F)ccc2F)cn1Cc1ccccc1)N(CCCN)C(=O)CO [Reference Example R1M, N-(3-Aminopropyl)-N-{(IR)-1-[1-benzyl-4-(2,5-difluorophenyl)-IH-pyrrol-2-yl]-2,2-dimethylpropyl}-2-hydroxyacetamide]
- Papp (B − A): 21.3 ×10⁻⁶ cm/s
